Measurements from patent US20210395313A1, “PEPTIDE PAC1 ANTAGONISTS” (AMGEN INC., priority 2017, published 2021).

Tests used:
[1] = target: T1, human PAC1 receptor (Homo sapiens, UniProt P41586); assay: LANCE Ultra cAMP accumulation antagonist assay in SHSY-5Y cells; type: cell-based;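 further: inhibition of cAMP accumulation evoked by PAC1 agonist at its EC80 in SHSY-5Y cells endogenously expressing receptor, 30 min preincubation then 15 min agonist, TR-FRET readout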
T1 construct: SHSY-5Y (human neuroblastoma cell line) and RG-2 (rat glioma cell line) cells endogenously express human and rat PAC1 receptors, respectively; endogenous in cells; host or cells: SHSY-5Y human neuroblastoma cells
T1 sequence (P41586 21-468): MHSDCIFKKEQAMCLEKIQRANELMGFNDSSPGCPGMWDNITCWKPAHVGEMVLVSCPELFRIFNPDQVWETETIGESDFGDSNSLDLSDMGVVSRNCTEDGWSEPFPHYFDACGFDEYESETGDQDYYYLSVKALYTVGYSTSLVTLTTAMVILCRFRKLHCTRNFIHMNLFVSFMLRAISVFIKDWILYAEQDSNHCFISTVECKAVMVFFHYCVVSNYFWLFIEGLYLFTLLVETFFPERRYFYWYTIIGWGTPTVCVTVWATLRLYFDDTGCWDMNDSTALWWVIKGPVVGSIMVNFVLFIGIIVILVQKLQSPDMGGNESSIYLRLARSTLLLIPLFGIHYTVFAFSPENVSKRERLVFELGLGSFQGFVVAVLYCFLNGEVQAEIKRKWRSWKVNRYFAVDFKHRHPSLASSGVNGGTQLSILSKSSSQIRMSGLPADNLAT

[2] = target: T2, rat PAC1 receptor (Rattus norvegicus, UniProt P32215); assay: LANCE Ultra cAMP accumulation antagonist assay in RG-2 cells; type: cell-based;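 further: RG-2 rat glioma cells endogenously expressing PAC1, test peptide preincubated 30 min, then PAC1 agonist added at its EC80 for 15 min, cAMP accumulation read by LANCE Ultra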
T2 construct: SHSY-5Y (human neuroblastoma cell line) and RG-2 (rat glioma cell line) cells endogenously express human and rat PAC1 receptors, respectively; endogenous in cells; host or cells: RG-2 rat glioma cells
T2 sequence (P32215 20-523): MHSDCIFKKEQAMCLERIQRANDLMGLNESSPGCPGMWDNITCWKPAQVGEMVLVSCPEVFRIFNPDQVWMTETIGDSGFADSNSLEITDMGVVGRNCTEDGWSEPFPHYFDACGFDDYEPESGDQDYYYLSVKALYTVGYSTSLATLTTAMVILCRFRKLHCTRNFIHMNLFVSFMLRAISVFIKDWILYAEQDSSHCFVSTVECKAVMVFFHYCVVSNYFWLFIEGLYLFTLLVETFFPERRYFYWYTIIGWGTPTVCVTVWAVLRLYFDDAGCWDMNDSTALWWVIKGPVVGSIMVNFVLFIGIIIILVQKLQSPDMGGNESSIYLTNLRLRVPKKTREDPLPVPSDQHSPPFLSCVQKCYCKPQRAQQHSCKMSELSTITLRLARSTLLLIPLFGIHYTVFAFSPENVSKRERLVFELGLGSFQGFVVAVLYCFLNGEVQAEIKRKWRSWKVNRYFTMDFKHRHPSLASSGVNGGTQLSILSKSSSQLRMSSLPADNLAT

SMILES	IC50 [1]	IC50 [2]
CCCC[C@H](NC(=O)[C@@H]1CSSC[C@H](NC(=O)[C@H](CC(=O)O)NC(=O)[C@H](CC(=O)O)NC(=O)[C@@H](NC(=O)[C@H](C)NC(=O)[C@H](CCCCN)NC(=O)[C@H](CCCNC(=N)N)NC(=O)[C@H](Cc2ccccc2)NC(=O)[C@H](CCC(N)=O)NC(=O)[C@@H]2CSSC[C@H](N)C(=O)N[C@@H](CC(=O)O)C(=O)N[C@@H](C)C(=O)N[C@@H]([C@@H](C)O)C(=O)N2)[C@@H](C)CC)C(=O)N[C@@H](CC(=O)O)C(=O)N[C@@H](CCCCN)C(=O)N[C@@H](CCC(N)=O)C(=O)N[C@@H](C)C(=O)N[C@@H](Cc2c[nH]cn2)C(=O)N[C@@H](Cc2c[nH]cn2)C(=O)N[C@@H](CO)C(=O)N[C@@H](CC(N)=O)C(=O)N[C@@H](C(C)C)C(=O)N2CCC[C@H]2C(=O)NCC(=O)N[C@@H](CO)C(=O)N[C@@H](C(C)C)C(=O)N[C@@H](Cc2ccccc2)C(=O)N[C@@H](CCCCN)C(=O)NC(C)(C)C(=O)N1)C(=O)N[C@@H](CCCCN)C(=O)N[C@@H](CCC(N)=O)C(=O)N[C@@H](CCCCN)C(=O)N[C@@H](CCCCN)C(=O)N[C@@H](CCCCN)C(=O)N[C@@H](CCC(=O)O)C(=O)N[C@@H](Cc1ccccc1)C(=O)N[C@@H](CCCCN)C(=O)N[C@@H](C)C(=O)NCC(N)=O [compound 255]	1 to 100 nM	0.01 to 1 nM
CC[C@H](C)[C@H](NC(=O)[C@H](C)NC(=O)[C@H](CCCCN)NC(=O)[C@H](CCCNC(=N)N)NC(=O)[C@H](Cc1ccccc1)NC(=O)[C@H](CCC(N)=O)NC(=O)[C@@H]1CSSC[C@H](N)C(=O)N[C@@H](CC(=O)O)C(=O)N[C@@H](C)C(=O)N[C@@H]([C@@H](C)O)C(=O)N1)C(=O)N[C@@H](CC(=O)O)C(=O)N[C@@H](CC(=O)O)C(=O)N[C@H]1CSSC[C@@H](C(=O)N[C@@H](CCSC)C(=O)N[C@@H](CCCCN)C(=O)N[C@@H](CCC(N)=O)C(=O)N[C@@H](CCCCN)C(=O)N[C@@H](CCCCN)C(=O)N[C@@H](CCCCN)C(=O)N[C@@H](CCC(=O)O)C(=O)N[C@@H](Cc2ccccc2)C(=O)N[C@@H](CCCCN)C(N)=O)NC(=O)C(C)(C)NC(=O)[C@H](CCCCN)NC(=O)[C@H](Cc2ccccc2)NC(=O)[C@H](CO)NC(=O)[C@H](CO)NC(=O)[C@H](Cc2c[nH]cn2)NC(=O)[C@H](Cc2c[nH]cn2)NC(=O)[C@H](C)NC(=O)[C@H](CCC(N)=O)NC(=O)[C@H](CCCCN)NC(=O)[C@H](CCC(N)=O)NC1=O [compound 243]	1 to 100 nM	1 to 100 nM
CC[C@H](C)[C@H](NC(=O)[C@H](C)NC(=O)[C@H](CCCCN)NC(=O)[C@H](CCCNC(=N)N)NC(=O)[C@H](Cc1ccccc1)NC(=O)[C@H](CCC(N)=O)NC(=O)[C@@H]1CSSC[C@H](N)C(=O)N[C@@H](CC(=O)O)C(=O)N[C@@H](C)C(=O)N[C@@H]([C@@H](C)O)C(=O)N1)C(=O)N[C@@H](CC(=O)O)C(=O)N[C@@H](CC(=O)O)C(=O)N[C@H]1CSSC[C@@H](C(=O)N[C@@H](CCSC)C(=O)N[C@@H](CCCCN)C(=O)N[C@@H](CCC(N)=O)C(=O)N[C@@H](CCCCN)C(=O)N[C@@H](CCCCN)C(=O)N[C@@H](CCCCN)C(=O)N[C@@H](CCC(=O)O)C(=O)N[C@@H](Cc2ccccc2)C(=O)N[C@@H](CCCCN)C(=O)N[C@@H](C)C(=O)NCC(N)=O)NC(=O)C(C)(C)NC(=O)[C@H](CCCCN)NC(=O)[C@H](Cc2ccccc2)NC(=O)[C@H](C(C)C)NC(=O)CNC(=O)[C@@H]2CCCN2C(=O)[C@H](C(C)C)NC(=O)[C@H](CC(N)=O)NC(=O)[C@H](CO)NC(=O)[C@H](Cc2c[nH]cn2)NC(=O)[C@H](Cc2c[nH]cn2)NC(=O)[C@H](C)NC(=O)[C@H](CCC(N)=O)NC(=O)[C@H](CCCCN)NC(=O)[C@H](CCC(N)=O)NC1=O [compound 237]	1 to 100 nM	0.01 to 1 nM
CC[C@H](C)[C@H](NC(=O)[C@H](C)NC(=O)[C@H](CCCCN)NC(=O)[C@H](CCCNC(=N)N)NC(=O)[C@H](Cc1ccccc1)NC(=O)[C@H](CCC(N)=O)NC(=O)[C@@H]1CSSC[C@H](N)C(=O)N[C@@H](CC(=O)O)C(=O)N[C@@H](C)C(=O)N[C@@H]([C@@H](C)O)C(=O)N1)C(=O)N[C@@H](CC(=O)O)C(=O)N[C@@H](CC(=O)O)C(=O)N[C@H]1CSSC[C@@H](C(=O)N[C@@H](CCSC)C(=O)N[C@@H](CCCCN)C(=O)N[C@@H](CCC(N)=O)C(=O)N[C@@H](CCCCN)C(=O)N[C@@H](CCCCN)C(=O)N[C@@H](CCCCN)C(=O)N[C@@H](CCC(=O)O)C(=O)N[C@@H](Cc2ccccc2)C(=O)N[C@@H](CCCCN)C(N)=O)NC(=O)C(C)(C)NC(=O)[C@H](CCCCN)NC(=O)[C@H](Cc2ccccc2)NC(=O)[C@H](CO)NC(=O)[C@H](CC(N)=O)NC(=O)CNC(=O)[C@@H]2CCCN2C(=O)[C@H](C(C)C)NC(=O)[C@H](CC(N)=O)NC(=O)[C@H](CO)NC(=O)[C@H](Cc2c[nH]cn2)NC(=O)[C@H](Cc2c[nH]cn2)NC(=O)[C@H](C)NC(=O)[C@H](CCC(N)=O)NC(=O)[C@H](CCCCN)NC(=O)[C@H](CC(=O)O)NC1=O [compound 270]	1 to 100 nM	0.01 to 1 nM
CC[C@H](C)[C@H](NC(=O)[C@H](C)NC(=O)[C@H](CCCCN)NC(=O)[C@H](CCCNC(=N)N)NC(=O)[C@H](Cc1ccccc1)NC(=O)[C@H](CCC(N)=O)NC(=O)[C@@H]1CSSC[C@H](N)C(=O)N[C@@H](CC(=O)O)C(=O)N[C@@H](C)C(=O)N[C@@H]([C@@H](C)O)C(=O)N1)C(=O)N[C@@H](CC(=O)O)C(=O)N[C@@H](CC(=O)O)C(=O)N[C@H]1CSSC[C@@H](C(=O)N[C@@H](CCSC)C(=O)N[C@@H](CCCCN)C(=O)N[C@@H](CCC(N)=O)C(=O)N[C@@H](CCCCN)C(=O)N[C@@H](CCCCN)C(=O)N[C@@H](CCCCN)C(=O)N[C@@H](CCC(=O)O)C(=O)N[C@@H](Cc2c[nH]c3ccccc23)C(=O)N[C@@H](CCCCN)C(=O)N[C@@H](C)C(=O)NCC(N)=O)NC(=O)C(C)(C)NC(=O)[C@H](CCCCN)NC(=O)[C@H](Cc2ccccc2)NC(=O)[C@H](C(C)C)NC(=O)[C@H](CO)NC(=O)CNC(=O)[C@@H]2CCCN2C(=O)[C@H](C(C)C)NC(=O)[C@H](CC(N)=O)NC(=O)[C@H](CO)NC(=O)[C@H](Cc2c[nH]cn2)NC(=O)[C@H](Cc2c[nH]cn2)NC(=O)[C@H](C)NC(=O)[C@H](CCC(N)=O)NC(=O)[C@H](CCCCN)NC(=O)[C@H](CCC(N)=O)NC1=O [compound 231]	0.01 to 1 nM	0.01 to 1 nM
CCCC[C@H](NC(=O)[C@@H]1CSSC[C@H](NC(=O)[C@H](CC(=O)O)NC(=O)[C@H](CC(=O)O)NC(=O)[C@@H](NC(=O)[C@H](C)NC(=O)[C@H](CCCCN)NC(=O)[C@H](CCCNC(=N)N)NC(=O)[C@H](Cc2ccccc2)NC(=O)[C@H](CCC(N)=O)NC(=O)[C@@H]2CSSC[C@H](N)C(=O)N[C@@H](CC(=O)O)C(=O)N[C@@H](C)C(=O)N[C@@H]([C@@H](C)O)C(=O)N2)[C@@H](C)CC)C(=O)N[C@@H](CC(=O)O)C(=O)N[C@@H](CCCCN)C(=O)N[C@@H](CCC(N)=O)C(=O)N[C@@H](C)C(=O)N[C@@H](Cc2c[nH]cn2)C(=O)N[C@@H](Cc2c[nH]cn2)C(=O)N[C@@H](CO)C(=O)N[C@@H](CC(N)=O)C(=O)N[C@@H](C(C)C)C(=O)N2CCC[C@H]2C(=O)NCC(=O)N[C@@H](CC(N)=O)C(=O)N[C@@H](CO)C(=O)N[C@@H](C(C)C)C(=O)N[C@@H](Cc2ccccc2)C(=O)N[C@@H](CCCCN)C(=O)N[C@@H](CCC(=O)O)C(=O)N1)C(=O)N[C@@H](CCCCN)C(=O)N[C@@H](CCC(N)=O)C(=O)N[C@@H](CCCCN)C(=O)N[C@@H](CCCCN)C(=O)N[C@@H](CCCCN)C(=O)N[C@@H](CCC(=O)O)C(=O)N[C@@H](Cc1ccccc1)C(=O)N[C@@H](CCCCN)C(N)=O [compound 266]	1 to 100 nM	0.01 to 1 nM
